pKi: −log10 of the molar value.
Target: 5-hydroxytryptamine receptor 1A (Homo sapiens, UniProt P08908)
Assay: Ability to inhibit the forskolin-stimulated c-AMP formation mediated by human 5-hydroxytryptamine 1A receptor in CHO-K1 cells
Assay type: functional, cell-based

Sequences of proteins named here, by UniProt entry; tags and fusion partners are left off.
UniProt P08908, whole entry: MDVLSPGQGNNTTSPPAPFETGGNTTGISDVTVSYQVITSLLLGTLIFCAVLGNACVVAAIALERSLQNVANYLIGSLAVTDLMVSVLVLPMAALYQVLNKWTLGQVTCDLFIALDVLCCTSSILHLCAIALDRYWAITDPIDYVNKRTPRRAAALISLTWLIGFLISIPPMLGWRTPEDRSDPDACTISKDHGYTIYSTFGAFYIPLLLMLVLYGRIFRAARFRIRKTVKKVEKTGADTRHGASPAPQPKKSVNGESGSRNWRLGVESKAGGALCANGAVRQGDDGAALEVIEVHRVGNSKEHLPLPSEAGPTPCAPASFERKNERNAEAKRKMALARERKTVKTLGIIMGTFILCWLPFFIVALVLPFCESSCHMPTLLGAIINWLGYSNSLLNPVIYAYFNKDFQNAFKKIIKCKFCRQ

Question: With `CC(=O)Nc1ccc(N2CCN(C(=O)COc3ccc4[nH]cc(CCN)c4c3)CC2)cc1` as the compound, how does the pKi read?
Answer: 6.87

Source: ChEMBL document CHEMBL1129591 (J Med Chem, 1996)
